Data published in PubChem BioAssay AID2599 (Sanford-Burnham Center for Chemical Genomics, 2010).
This is a selection; strong and weak results do not stand in their true shares. Activity calls are given as the source filed them.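 How the source made its calls: active means inhibition above about 50% at the single tested dose (limit read from the data); inactive means the rest.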

Sequences of proteins named here, by UniProt entry; tags and fusion partners are left off. Residues count along the entry.
UniProt Q9GZR1, 628-1112 limits assumed: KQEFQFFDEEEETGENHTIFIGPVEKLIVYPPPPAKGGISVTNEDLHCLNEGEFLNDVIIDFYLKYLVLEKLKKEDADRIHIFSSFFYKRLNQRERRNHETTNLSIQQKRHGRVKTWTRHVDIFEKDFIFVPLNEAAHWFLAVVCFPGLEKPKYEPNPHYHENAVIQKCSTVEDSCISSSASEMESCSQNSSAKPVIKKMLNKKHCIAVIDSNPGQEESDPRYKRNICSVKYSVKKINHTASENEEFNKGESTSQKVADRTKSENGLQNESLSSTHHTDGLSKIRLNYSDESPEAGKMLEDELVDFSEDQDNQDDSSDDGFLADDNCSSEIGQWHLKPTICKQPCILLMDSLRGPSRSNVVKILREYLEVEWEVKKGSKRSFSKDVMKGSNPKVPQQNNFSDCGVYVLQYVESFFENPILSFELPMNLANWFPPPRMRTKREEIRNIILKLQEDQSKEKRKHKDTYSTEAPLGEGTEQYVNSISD

target: Sentrin-specific protease 6 (Homo sapiens) (UniProt Q9GZR1); assay: inhibition of human SENP6 catalytic domain – biochemical, luminescence, uHTS, primary screen (AID 2599); conditions: Recombinant SENP6 catalytic domain, aminoluciferin luminescence; at 10 µM; active compounds read high;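 further: plate controls were DMSO wells with enzyme for no effect and DMSO wells lacking enzyme for full effect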

SMILES | inhibition
Cc1ccc(OP(=O)(Nc2ccc([N+](=O)[O-])cn2)Oc2ccc(C)cc2)cc1 | inactive: -2.69%
